Drawing on ChEMBL document CHEMBL3393014, “Discovery of 5-(1H-indol-5-yl)-1,3,4-thiadiazol-2-amines as potent PIM inhibitors” (Bioorg Med Chem Lett, 2015), this text covers IC50 for 1 molecule.

By IC50 is commonly meant the concentration at which inhibition is half-maximal.

The target of the experiment is Serine/threonine-protein kinase pim-3 (Homo sapiens, UniProt Q86V86). The experiment is described as follows: Inhibition of full length recombinant PIM3 (unknown origin) using biotinylated-BAD peptide as substrate assessed as phosphorylation at serine 112 after 45 mins by HTRF method. On the technique in general: TR-FRET usually uses a lanthanide donor and a delayed reading to cut background.

`Nc1nnc(-c2ccc3[nH]cc(-c4cccc(N5CCCC5)n4)c3c2)s1`: the IC50 worked out at 15 nM.
